1 compound from patent US20200306295A1, “METHOD AND DEVICE FOR ANNIHILATION OF Staphylococcus aureus” (priority 2017, published 2020) can be followed below.

For this assay, the system named is stationary-phase MRSA. It counts as cell-based, S. aureus. Particulars: 16 min laser stated for tetracycline; 2-fold or larger is synergy (FICI). The procedure:
To monitor the response of bacteria to laser treatment alone, antibiotic treatment alone, or their combinations, bacterial growth was continuously monitored overnight (18 hours with an interval of 30 min at 37° C.) by measuring optical density at 600 nm (OD600). Depending on the specific assay applied, the bacterial cells were suspended in 100 or 200 μl TSB medium under different treatment schemes (antibiotic alone, laser treatment alone, antibiotic plus laser treatment) with a final concentration of ˜10^5 CFU/ml. Bacterial growth was defined as OD600≥0.1.
Stationary-phase bacterial cells was washed and resuspended in 1×PBS at its original concentration. […] The treated droplet was collected and resuspended into 5 ml TSB (1:1000 dilution) for each group. […] After serial dilution, bacterial growth within the same well plate was monitored by a plate reader for 18 hours (OD600, 37° C.). […] Based on the readout of OD600, a heat map was created to evaluate the antibiotic potentiation or synergistic effect enabled by STX photolysis.
Based on the checkerboard results, the fractional inhibitory concentration index (FICI), a synergy evaluation method between two antibiotics, was calculated as below: FICI=MIC of antibiotic A in combination/MIC of antibiotic A alone+MIC of antibiotic B in combination/MIC of antibiotic B alone. […]

For `Cc1onc(-c2ccccc2)c1C(=O)N[C@@H]1C(=O)N2[C@@H]1SC(C)(C)[C@@H]2C(=O)O` [Oxacillin, oxacillin], the “fold reduction of lowest concentration completely inhibiting MRSA growth within 18 hours, with laser treatment” value came out at 8 fold.
